From publication PMC9246016, “Effects of ginkgo leaf tablet on the pharmacokinetics of rosiglitazone in rats and its potential mechanism” (Pharmaceutical Biology, 2022) come the findings set out here.

By UniProt entry, the sequences of proteins in these tests, tags left out.
UniProt P11712, whole entry: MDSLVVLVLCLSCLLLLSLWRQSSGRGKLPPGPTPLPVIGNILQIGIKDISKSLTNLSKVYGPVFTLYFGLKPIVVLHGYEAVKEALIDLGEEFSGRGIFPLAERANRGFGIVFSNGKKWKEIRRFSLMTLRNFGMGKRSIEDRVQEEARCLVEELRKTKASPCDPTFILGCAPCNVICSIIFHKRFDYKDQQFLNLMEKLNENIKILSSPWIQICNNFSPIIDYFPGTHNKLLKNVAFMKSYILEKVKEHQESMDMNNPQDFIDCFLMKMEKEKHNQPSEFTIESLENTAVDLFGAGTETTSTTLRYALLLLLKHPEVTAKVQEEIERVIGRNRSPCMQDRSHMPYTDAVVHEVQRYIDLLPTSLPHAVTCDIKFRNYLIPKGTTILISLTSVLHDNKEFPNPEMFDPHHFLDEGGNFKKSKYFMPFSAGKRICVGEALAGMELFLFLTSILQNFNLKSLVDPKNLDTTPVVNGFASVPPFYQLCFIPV

Structures are written as SMILES.

A short description of series [1]: Pharmacokinetics of ROS with single-dose GLT in rats. Conditions: ROS 10 mg/kg.
Series [2] is described as follows: Pharmacokinetics of ROS after 10-day multiple-dose GLT in rats. Conditions: ROS 10 mg/kg.
Series [3] has as its target recombinant human CYP2C9 (RHCYP2C9) (Homo sapiens, UniProt P11712). Description: Inhibition of RHCYP2C9 yeast microsomes, probe substrate diclofenac. As for the experimental part:
RHCYP2C8 and RHCYP2C9 yeast microsomes were extracted using the glass bead crushing method and differential centrifugation, with grinding 15 times by 0.5 g glass beads and centrifugation at 9,000 g for 20 min at 4 °C. The supernatant was then centrifuged at 100,000 g at 4 °C (BECKMAN COULTER Optima™ L-80 XP Ultracentrifuge) for 1 h, and the precipitation was RHCYP2C8 or RHCYP2C9 yeast microsome. Reconstituted with potassium phosphate buffer (pH 7.4), the microsome solution was collected and stored at −80 °C for subsequent examination. Protein concentrations of microsomes were determined using the Lowry method.
Amodiaquine and diclofenac are typical CYP2C8 and CYP2C9 probe substrates, respectively. […] The reactions were initiated by the addition of NADPH with pre-incubation 10 min in advance and carried out for 40 min.
The CYP2C8 sample treatment process was that incubation was terminated by adding 200 μL of methanol. Samples were centrifuged at 12,000 rpm for 10 min, and the supernatant was subjected to HPLC. The CYP2C9 sample treatment process was that each sample (100 μL) was spiked with 10 μL of carbamazepine (30 μg/mL). The mixture was then extracted with 500 μL ethyl acetate by vortexing for 3 min and centrifuged at 12,000 rpm for 10 min. […] The residue was dissolved in 100 μL methanol for HPLC analysis.

Where [4] appears, read: multiple-dose GLT 100 mg/kg 10 days.
Setting [5] is: multiple-dose GLT 200 mg/kg 10 days.

For `CN(CCOc1ccc(CC2SC(=O)NC2=O)cc1)c1ccccn1` (stereo not drawn) [ROS, Rosiglitazone], the “increase of t1/2 vs control” value in series [1] (single-dose GLT 100 mg/kg) was 30%. Also, the “increase of t1/2 vs control” value in series [1] (single-dose GLT 200 mg/kg) was 52%. The “differences in AUC0-t, Cmax, and Tmax of ROS vs control” value in series [1] (single-dose GLT 100 or 200 mg/kg) was “no significant difference”. Besides, in series [2] (setting [4]), the “downregulation (decrease) of t1/2 vs control” value was determined as 28%, the “increase of CL/F vs control” value is reported as “about 80%”, the “reduction of AUC0-t vs control” value is 39% and the “reduction of Cmax vs control” value came out at 26%. For the same compound, in series [2] (setting [5]), the “downregulation (decrease) of t1/2 vs control” value turned out to be 39%, the “increase of CL/F vs control” value was around 110%, the “reduction of AUC0-t vs control” value is 52% and the “reduction of Cmax vs control” value came out at 27%.

The IC50 is the concentration that gives 50% inhibition. Take `O=c1c(O)c(-c2ccc(O)c(O)c2)oc2cc(O)cc(O)c12` [quercetin]: the IC50 in series [3] came out at 27.3 µM.
